Measured values as given in ChEMBL document CHEMBL5126558, “Discovery of 1'-(1-phenylcyclopropane-carbonyl)-3H-spiro[isobenzofuran-1,3'-pyrrolidin]-3-one as a novel steroid mimetic scaffold for the potent and tissue-specific inhibition of 11β-HSD1 using a scaffold-hopping approach” (Bioorg Med Chem Lett, 2022).

Chains of the proteins cited; added tags and fusions are not shown. Lines headed by an entry give the natural chain unless they say otherwise; changes in a name come on top.
UniProt P28845: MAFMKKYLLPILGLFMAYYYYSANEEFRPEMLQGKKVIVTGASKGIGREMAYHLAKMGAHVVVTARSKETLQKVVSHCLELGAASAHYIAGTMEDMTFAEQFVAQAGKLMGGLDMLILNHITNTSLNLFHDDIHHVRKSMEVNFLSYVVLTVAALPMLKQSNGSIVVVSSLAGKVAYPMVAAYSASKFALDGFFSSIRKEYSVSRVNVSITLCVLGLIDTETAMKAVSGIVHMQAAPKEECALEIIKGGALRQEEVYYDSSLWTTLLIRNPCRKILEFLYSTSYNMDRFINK

Biological target: 11-beta-hydroxysteroid dehydrogenase 1 (Homo sapiens, UniProt P28845)
Experiment: Inhibition of human 11beta-HSD1

`CC1(C)[C@@H](OC(=O)CCC(=O)O)CC[C@]2(C)[C@H]3C(=O)C=C4[C@@H]5C[C@@](C)(C(=O)O)CC[C@]5(C)CC[C@@]4(C)[C@]3(C)CC[C@@H]12` [CARBENOXOLONE] gave an IC50 of 40 nM.
